Results as given in IntAct's records for PubMed 35512704.

B1: RAC-alpha serine/threonine-protein kinase (Homo sapiens), P31749 (parent)
chain: MSDVAIVKEGWLHKRGEYIKTWRPRYFLLKNDGTFIGYKERPQDVDQREAPLNNFSVAQCQLMKTERPRPNTFIIRCLQWTTVIERTFHVETPEEREEWTTAIQTVADGLKKQEEEEMDFRSGSPSDNSGAEEMEVSLAKPKHRVTMNEFEYLKLLGKGTFGKVILVKEKATGRYYAMKILKKEVIVAKDEVAHTLTENRVLQNSRHPFLTALKYSFQTHDRLCFVMEYANGGELFFHLSRERVFSEDRARFYGAEIVSALDYLHSEKNVVYRDLKLENLMLDKDGHIKITDFGLCKEGIKDGATMKTFCGTPEYLAPEVLEDNDYGRAVDWWGLGVVMYEMMCGRLPFYNQDHEKLFELILMEEIRFPRTLGPEAKSLLSGLLKKDPKQRLGGGSEDAKEIMQHRFFAGIVWQHVYEKKLSPPFKPQVTSETDTRYFDEEFTAQMITITPPDQDDSMECVDSERRPHFPQFSYSASGTA

Variants of: B1
Details: with hdac3_human HDAC3, O15379

Variant | effect of a mutation on the interaction
MSDVAIVKEGWLHKRGKYIKTWRPRYFLLKNDGTFIGYKERPQDVDQREAPLNNFSVAQCQLMKTERPRPNTFIIRCLQWTTVIERTFHVETPEEREEWTTAIQTVADGLKKQEEEEMDFRSGSPSDNSGAEEMEVSLAKPKHRVTMNEFEYLKLLGKGTFGKVILVKEKATGRYYAMKILKKEVIVAKDEVAHTLTENRVLQNSRHPFLTALKYSFQTHDRLCFVMEYANGGELFFHLSRERVFSEDRARFYGAEIVSALDYLHSEKNVVYRDLKLENLMLDKDGHIKITDFGLCKEGIKDGATMKTFCGTPEYLAPEVLEDNDYGRAVDWWGLGVVMYEMMCGRLPFYNQDHEKLFELILMEEIRFPRTLGPEAKSLLSGLLKKDPKQRLGGGSEDAKEIMQHRFFAGIVWQHVYEKKLSPPFKPQVTSETDTRYFDEEFTAQMITITPPDQDDSMECVDSERRPHFPQFSYSASGTA [E17K] | causing an interaction

Variants of: B1
Details: with h31_human H3C1

Variant | effect of a mutation on the interaction
MSDVAIVKEGWLHKRGKYIKTWRPRYFLLKNDGTFIGYKERPQDVDQREAPLNNFSVAQCQLMKTERPRPNTFIIRCLQWTTVIERTFHVETPEEREEWTTAIQTVADGLKKQEEEEMDFRSGSPSDNSGAEEMEVSLAKPKHRVTMNEFEYLKLLGKGTFGKVILVKEKATGRYYAMKILKKEVIVAKDEVAHTLTENRVLQNSRHPFLTALKYSFQTHDRLCFVMEYANGGELFFHLSRERVFSEDRARFYGAEIVSALDYLHSEKNVVYRDLKLENLMLDKDGHIKITDFGLCKEGIKDGATMKTFCGTPEYLAPEVLEDNDYGRAVDWWGLGVVMYEMMCGRLPFYNQDHEKLFELILMEEIRFPRTLGPEAKSLLSGLLKKDPKQRLGGGSEDAKEIMQHRFFAGIVWQHVYEKKLSPPFKPQVTSETDTRYFDEEFTAQMITITPPDQDDSMECVDSERRPHFPQFSYSASGTA [E17K] | causing an interaction

Variants of: B1
Details: with rash_human HRAS

Variant | effect of a mutation on the interaction
MSDVAIVKEGWLHKRGKYIKTWRPRYFLLKNDGTFIGYKERPQDVDQREAPLNNFSVAQCQLMKTERPRPNTFIIRCLQWTTVIERTFHVETPEEREEWTTAIQTVADGLKKQEEEEMDFRSGSPSDNSGAEEMEVSLAKPKHRVTMNEFEYLKLLGKGTFGKVILVKEKATGRYYAMKILKKEVIVAKDEVAHTLTENRVLQNSRHPFLTALKYSFQTHDRLCFVMEYANGGELFFHLSRERVFSEDRARFYGAEIVSALDYLHSEKNVVYRDLKLENLMLDKDGHIKITDFGLCKEGIKDGATMKTFCGTPEYLAPEVLEDNDYGRAVDWWGLGVVMYEMMCGRLPFYNQDHEKLFELILMEEIRFPRTLGPEAKSLLSGLLKKDPKQRLGGGSEDAKEIMQHRFFAGIVWQHVYEKKLSPPFKPQVTSETDTRYFDEEFTAQMITITPPDQDDSMECVDSERRPHFPQFSYSASGTA [E17K] | causing an interaction

Variants of: B1
Details: with ist1_human IST1

Variant | effect of a mutation on the interaction
MSDVAIVKEGWLHKRGKYIKTWRPRYFLLKNDGTFIGYKERPQDVDQREAPLNNFSVAQCQLMKTERPRPNTFIIRCLQWTTVIERTFHVETPEEREEWTTAIQTVADGLKKQEEEEMDFRSGSPSDNSGAEEMEVSLAKPKHRVTMNEFEYLKLLGKGTFGKVILVKEKATGRYYAMKILKKEVIVAKDEVAHTLTENRVLQNSRHPFLTALKYSFQTHDRLCFVMEYANGGELFFHLSRERVFSEDRARFYGAEIVSALDYLHSEKNVVYRDLKLENLMLDKDGHIKITDFGLCKEGIKDGATMKTFCGTPEYLAPEVLEDNDYGRAVDWWGLGVVMYEMMCGRLPFYNQDHEKLFELILMEEIRFPRTLGPEAKSLLSGLLKKDPKQRLGGGSEDAKEIMQHRFFAGIVWQHVYEKKLSPPFKPQVTSETDTRYFDEEFTAQMITITPPDQDDSMECVDSERRPHFPQFSYSASGTA [E17K] | causing an interaction

Variants of: B1
Details: with jak2_human JAK2, O60674

Variant | effect of a mutation on the interaction
MSDVAIVKEGWLHKRGKYIKTWRPRYFLLKNDGTFIGYKERPQDVDQREAPLNNFSVAQCQLMKTERPRPNTFIIRCLQWTTVIERTFHVETPEEREEWTTAIQTVADGLKKQEEEEMDFRSGSPSDNSGAEEMEVSLAKPKHRVTMNEFEYLKLLGKGTFGKVILVKEKATGRYYAMKILKKEVIVAKDEVAHTLTENRVLQNSRHPFLTALKYSFQTHDRLCFVMEYANGGELFFHLSRERVFSEDRARFYGAEIVSALDYLHSEKNVVYRDLKLENLMLDKDGHIKITDFGLCKEGIKDGATMKTFCGTPEYLAPEVLEDNDYGRAVDWWGLGVVMYEMMCGRLPFYNQDHEKLFELILMEEIRFPRTLGPEAKSLLSGLLKKDPKQRLGGGSEDAKEIMQHRFFAGIVWQHVYEKKLSPPFKPQVTSETDTRYFDEEFTAQMITITPPDQDDSMECVDSERRPHFPQFSYSASGTA [E17K] | causing an interaction

Variants of: B1
Details: with kalrn_human KALRN

Variant | effect of a mutation on the interaction
MSDVAIVKEGWLHKRGKYIKTWRPRYFLLKNDGTFIGYKERPQDVDQREAPLNNFSVAQCQLMKTERPRPNTFIIRCLQWTTVIERTFHVETPEEREEWTTAIQTVADGLKKQEEEEMDFRSGSPSDNSGAEEMEVSLAKPKHRVTMNEFEYLKLLGKGTFGKVILVKEKATGRYYAMKILKKEVIVAKDEVAHTLTENRVLQNSRHPFLTALKYSFQTHDRLCFVMEYANGGELFFHLSRERVFSEDRARFYGAEIVSALDYLHSEKNVVYRDLKLENLMLDKDGHIKITDFGLCKEGIKDGATMKTFCGTPEYLAPEVLEDNDYGRAVDWWGLGVVMYEMMCGRLPFYNQDHEKLFELILMEEIRFPRTLGPEAKSLLSGLLKKDPKQRLGGGSEDAKEIMQHRFFAGIVWQHVYEKKLSPPFKPQVTSETDTRYFDEEFTAQMITITPPDQDDSMECVDSERRPHFPQFSYSASGTA [E17K] | causing an interaction

Variants of: B1
Details: with kat6a_human KAT6A

Variant | effect of a mutation on the interaction
MSDVAIVKEGWLHKRGKYIKTWRPRYFLLKNDGTFIGYKERPQDVDQREAPLNNFSVAQCQLMKTERPRPNTFIIRCLQWTTVIERTFHVETPEEREEWTTAIQTVADGLKKQEEEEMDFRSGSPSDNSGAEEMEVSLAKPKHRVTMNEFEYLKLLGKGTFGKVILVKEKATGRYYAMKILKKEVIVAKDEVAHTLTENRVLQNSRHPFLTALKYSFQTHDRLCFVMEYANGGELFFHLSRERVFSEDRARFYGAEIVSALDYLHSEKNVVYRDLKLENLMLDKDGHIKITDFGLCKEGIKDGATMKTFCGTPEYLAPEVLEDNDYGRAVDWWGLGVVMYEMMCGRLPFYNQDHEKLFELILMEEIRFPRTLGPEAKSLLSGLLKKDPKQRLGGGSEDAKEIMQHRFFAGIVWQHVYEKKLSPPFKPQVTSETDTRYFDEEFTAQMITITPPDQDDSMECVDSERRPHFPQFSYSASGTA [E17K] | causing an interaction

Variants of: B1
Details: with kdm5a_human KDM5A

Variant | effect of a mutation on the interaction
MSDVAIVKEGWLHKRGKYIKTWRPRYFLLKNDGTFIGYKERPQDVDQREAPLNNFSVAQCQLMKTERPRPNTFIIRCLQWTTVIERTFHVETPEEREEWTTAIQTVADGLKKQEEEEMDFRSGSPSDNSGAEEMEVSLAKPKHRVTMNEFEYLKLLGKGTFGKVILVKEKATGRYYAMKILKKEVIVAKDEVAHTLTENRVLQNSRHPFLTALKYSFQTHDRLCFVMEYANGGELFFHLSRERVFSEDRARFYGAEIVSALDYLHSEKNVVYRDLKLENLMLDKDGHIKITDFGLCKEGIKDGATMKTFCGTPEYLAPEVLEDNDYGRAVDWWGLGVVMYEMMCGRLPFYNQDHEKLFELILMEEIRFPRTLGPEAKSLLSGLLKKDPKQRLGGGSEDAKEIMQHRFFAGIVWQHVYEKKLSPPFKPQVTSETDTRYFDEEFTAQMITITPPDQDDSMECVDSERRPHFPQFSYSASGTA [E17K] | causing an interaction
